Reference: patent US10662475B2, “Compositions and methods for the treatment and prevention of antipsychotic medication-induced weight gain” (Centre for Addiction and Mental Health, priority 2014, dated 2020)

The chains behind the UniProt entries cited, without tags or fusion partners.
UniProt P20272, whole entry: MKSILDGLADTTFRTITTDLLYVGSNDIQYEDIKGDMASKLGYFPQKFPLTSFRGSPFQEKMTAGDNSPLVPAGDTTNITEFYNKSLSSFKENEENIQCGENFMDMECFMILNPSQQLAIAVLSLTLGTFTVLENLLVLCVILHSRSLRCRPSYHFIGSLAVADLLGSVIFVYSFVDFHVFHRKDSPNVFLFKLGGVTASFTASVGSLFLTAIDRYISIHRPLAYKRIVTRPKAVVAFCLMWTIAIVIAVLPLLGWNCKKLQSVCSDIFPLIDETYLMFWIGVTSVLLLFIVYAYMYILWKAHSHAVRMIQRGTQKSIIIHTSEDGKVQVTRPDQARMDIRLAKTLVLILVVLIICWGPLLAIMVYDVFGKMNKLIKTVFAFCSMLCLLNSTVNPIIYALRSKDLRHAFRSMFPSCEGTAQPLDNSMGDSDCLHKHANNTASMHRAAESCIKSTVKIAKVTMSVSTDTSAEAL

Key:
[1] = total sample, European ancestry subjects with schizophrenia or schizoaffective disorder, by antipsychotic; mean ± SD
[2] = total sample N=128, patients treated with clozapine, risperidone, olanzapine or haloperidol
[3] = molecular target: cannabinoid receptor type 1 (CB1) (Rattus norvegicus, UniProt P20272); details: injection of the CB1 antagonist; cited from earlier work

Structure (SMILES) | weight gain (% change from baseline weight) [1] | weight gain [2] | feeding induced by intracerebroventricular orexin-A injection [3]
Cc1cc2c(s1)Nc1ccccc1N=C2N1CCN(C)CC1 [olanzapine] | 10.25%±12.9 | highest weight gain | 
Cc1c(C(=O)NN2CCCCC2)nn(-c2ccc(Cl)cc2Cl)c1-c1ccc(Cl)cc1 [rimonabant] |  |  | abolishes feeding
Cc1nc2n(c(=O)c1CCN1CCC(c3noc4cc(F)ccc34)CC1)CCCC2 [risperidone] | 0.77% |  | 
